We go through 10 substances from publication PMC6499816, “Molecular determinants regulating selective binding of autophagy adapters and receptors to ATG8 proteins” (Nature Communications, 2019).

The term Kd denotes the concentration at which binding is half-saturated.

In one experiment the target is PCM1 K1957I LIR peptide. Kind of experiment: BLI; biotinylated LIR peptide immobilised on streptavidin biosensors (Octet Red 96), ATG8 protein in solution; 25 mM Tris pH 7.5, 150 mM NaCl, 0.5 mM TCEP, 0.1% Tween-20, 1 mg/ml BSA, 25 °C; Kd from response against concentration, Y=Rmax*X/(Kd+X).
For a further experiment, the target named is FIP200 T704I LIR peptide. The experiment is described as above.
Another experiment has as its target PCM1 WT LIR peptide. The description is as above.
The target in the next experiment is PCM1 V1956D LIR peptide. The description is as above.
For experiment [1], the target named is PCM1 K1957I LIR peptide (BLI). Kind of experiment: BLI; biotinylated LIR peptide (50 μg/ml) immobilised on streptavidin biosensor, ATG8 in solution; Octet Red 96; 25 mM Tris pH 7.5, 150 mM NaCl, 0.5 mM TCEP, 0.1% Tween-20, 1 mg/ml BSA; 25 °C; Kd from response against concentration. (BLI is a label-free optical method that tracks binding on a fibre tip over time.)

In experiment [2] the target is LC3B (recombinant, BLI) (human) (UniProt Q9GZQ8). Put plainly: BLI.

In the case of “GABARAP (from UniProt O95166 1-117) (natural protein)”, the figures for the Kd with PCM1 K1957I LIR peptide and with FIP200 T704I LIR peptide were 166 nM and 0.463 µM, respectively.
As for “GABARAP F62K (from UniProt O95166 1-117) (natural protein)”, the dissociation constant (Kd) in the experiment with PCM1 WT LIR peptide came to 3.79 µM.
Still for that read-out and setting: as for “GABARAP L55V (from UniProt O95166 1-117) (natural protein)”, the figure is 2.78 µM; as for “GABARAP L63I (from UniProt O95166 1-117) (natural protein)”, 1.99 µM; as for “GABARAP R28K (from UniProt O95166 1-117) (natural protein)”, 4.16 µM.
Take “GABARAP-L1 (from UniProt Q9H0R8 1-117) (natural protein)”: the equilibrium dissociation constant (Kd) with PCM1 V1956D LIR peptide was 5.19 µM.
Take “GABARAP-L1 (recombinant, BLI) (from UniProt Q9H0R8 1-117) (natural protein)”: the fold increase in binding against the PCM1 WT LIR peptide in experiment [1] turned out to be 12 fold.
With “LC3A (from UniProt Q9H492 1-121) (natural protein)”, the Kd with FIP200 T704I LIR peptide turned out to be 6.67 µM.
For “PCM1 LIR peptide mutated at P1962 (X7) (BLI) (from UniProt Q15154)”, in experiment [2], the Kd stood at 394 µM.
As for “PCM1 LIR peptide mutated at the acidic residues in X−1 and X−2 (BLI) (from UniProt Q15154)”, the dissociation constant Kd in experiment [2] was 1050 µM.
